Apparent affinities of Ab-95 variants for a coronavirus HR2 peptide

The measurements come from Engelhart et al. 2022 (doi:10.1038/s41597-022-01779-4) through the FLAb antibody collection.

Binding partner: SARS-CoV-2 spike HR2 peptide, sequence PDVDLGDISGINAS.

The variants keep the heavy chain, the linker and the frameworks of Ab-95 (scFv order VH, a (GGGGS)3 linker, VL).
VH: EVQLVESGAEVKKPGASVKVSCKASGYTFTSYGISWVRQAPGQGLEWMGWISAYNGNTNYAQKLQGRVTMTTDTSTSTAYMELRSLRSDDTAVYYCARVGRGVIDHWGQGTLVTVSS
VL: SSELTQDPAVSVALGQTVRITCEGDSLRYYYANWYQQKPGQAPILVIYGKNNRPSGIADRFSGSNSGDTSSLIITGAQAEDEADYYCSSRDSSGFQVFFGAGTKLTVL

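The starting antibody came from a phage panning campaign against this peptide. Library AAYL52 holds single substitutions and randomly drawn double and triple substitutions in the CDRs. In AlphaSeq, yeast of one mating type display the scFv and yeast of the other type display the target. The frequency of each diploid, read from paired DNA barcodes, reflects how well the two displayed proteins bind. Scores were corrected for input abundance and mapped to Kd with protein pairs of known affinity run in the same pool. There are three technical replicates.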

Variants are written as CDR1, CDR2 and CDR3 of the light chain (limits as in the source). Parent: EGDSLRYYYAN, GKNNRPS, SSRDSSGFQVF. Numbers give log10(Kd / nM), so 0 is 1 nM and 3 is 1 µM. Smaller is tighter. Where no diploid with the target was found in that replicate, the entry reads "nd": below detection, most likely a poor binder, though not proof of it.

| CDR-L1 | CDR-L2 | CDR-L3 | replicates, log10 nM | empty controls |
|---|---|---|---|---|
| EGDSLRYYYAN | GKRNRPH | SSRDSNGFQVF | nd / nd / nd | 1 of 9 (2.88) |
| EGDSDRYYYAN | GKNNRPS | SSRDDSGFQVF | 3.52 / 3.40 / 3.24 | 7 of 9 (4.18) |
| EYDSLRYYYAN | GKNNRPS | QARDSSGFQVF | 2.13 / 2.04 / 2.17 | 0 of 9 |
| EGDSLWYDYAN | GKNNRPS | SSKDSSGFQVF | nd / 3.73 / nd | 0 of 9 |
| ESDSLRYYYAV | GKNNRPS | SSRDSSGFFVF | nd / nd / 4.11 | 3 of 9 (3.78) |
| EGDSSRYYYAD | GKNNRPS | SSRDSWGFQVF | 2.16 / 1.87 / 1.92 | 1 of 9 (4.45) |
| EKDSLRGYYAN | GKNNRPS | NSRDSSGFQVF | nd / 2.77 / nd | 3 of 9 (3.85) |
| EGDSLRYHYAN | GKNNRPS | VSNDSSGFQVF | 3.51 / 2.96 / 2.34 | 2 of 9 (4.65) |
| EGDSLMYYYAN | GKLNRPS | SSRDSPGFQVF | 3.54 / 4.71 / nd | 3 of 9 (3.31) |
| EGCSLRYYYAN | GKNNRPS | YSRDSSQFQVF | 2.86 / 2.13 / 2.32 | 3 of 9 (3.93) |
| EGDSLRYYYKN | GKNNRWS | SSRDSSGNQVF | nd / 3.33 / nd | 1 of 9 (4.29) |
| EDDSLRYYSAN | GKNNRPS | SSRDSSMFQVF | 3.09 / 2.57 / 3.86 | 1 of 9 (3.27) |
| EGFSLRYYYAN | GKNNRTS | SSRDSSGFSVF | 4.72 / 4.50 / 3.18 | 4 of 9 (3.43) |
| EGDSLSYYYAN | GKNNRPS | SSWDSSGFQVF | nd / 3.44 / nd | 1 of 9 (2.88) |
| EGDSLKYYYAN | GKNNPPS | SSRDSSEFQVF | 3.68 / nd / nd | 1 of 9 (3.62) |
| EGDSLRYYYAN | GKNNRPS | SSRDWSMYQVF | 4.61 / nd / nd | 4 of 9 (3.22) |
| EGDSLRYYYIN | GKNNRNS | SSRDSSGFQVQ | nd / 2.92 / 4.03 | 2 of 9 (4.19) |
| EGDSLRYTYAN | GKNNRPS | SSRVSSGFQVW | 5.50 / 3.45 / nd | 4 of 9 (4.15) |
| EGDSLRYYYKN | GKNNEPQ | SSRDSSGFQVF | nd / 5.32 / 4.28 | 3 of 9 (3.93) |
| EQDSLRYYYAN | GKNNRWS | SSRDSSPFQVF | nd / nd / 3.99 | 2 of 9 (3.02) |
| EGDSLRDYYAN | GKNERPS | SSHDSSGFQVF | 4.51 / 4.30 / 4.37 | 1 of 9 (3.67) |
| EGDSVRYTYAN | GKNNRPY | SSRDSSGFQVF | 2.16 / 1.85 / 1.84 | 2 of 9 (4.37) |
| EGDSLRYYYAN | GKCNNPS | SSGDSSGFQVF | 3.38 / 4.32 / nd | 0 of 9 |
| YGDSLRYYYAN | GKNNRPQ | SSRDESGFQVF | 2.62 / 2.03 / 2.36 | 2 of 9 (3.35) |
| EGDSLRYYYAN | GSNNEPS | SSRDSSKFQVF | nd / nd / nd | 2 of 9 (3.81) |
| EGDSLRYYYAN | GYINRPS | RSRDSSGFQVF | 4.35 / nd / 3.25 | 8 of 9 (4.23) |
| EGDSLRYKYAN | GKNNRPS | SSRDSSFFQVI | 2.20 / 2.30 / 2.56 | 6 of 9 (3.95) |
| EGDSLLYYYAN | GMNNRPS | SSRDESGFQVF | 3.26 / 3.40 / 2.57 | 4 of 9 (4.62) |
| EGDSLRYYYAN | GKNNRPE | SSRDSSGFRFF | nd / 3.27 / 2.66 | 0 of 9 |
| EGDSLRYYYIN | GKNNRPE | SSRDSSGFQVF | 2.80 / 2.77 / 3.27 | 3 of 9 (3.58) |
| EGDSLRYHYLN | GKNNRPE | SSRDSSGFQVF | 2.56 / 2.21 / 2.52 | 4 of 9 (4.25) |
| EGDSYDYYYAN | GKNNRPS | SYRDSSGFQVF | 3.94 / 3.74 / nd | 5 of 9 (3.91) |
| EGDSLRYYYAN | GKNNRPG | SSRDSYGFWVF | 2.12 / 1.68 / 2.05 | 4 of 9 (3.96) |
| EGDSLRYYGAN | GKNNRES | SSRFSSGFQVF | 2.38 / 3.85 / 2.90 | 3 of 9 (3.84) |
| EGDSLRYYYAN | GKNNAPS | ISRDSSGFDVF | 3.94 / nd / nd | 0 of 9 |
| EGDSLRYCYAN | GKNNRPS | SSRDSSLFQVM | nd / nd / 4.33 | 1 of 9 (4.75) |
| EGDSLRYYYAN | FKNNRPS | SSRISSGPQVF | 4.41 / nd / 4.40 | 3 of 9 (4.55) |
| EGDSLRNYYAN | GKNNRPS | TSRDSSGFQKF | 2.13 / 1.74 / 1.79 | 2 of 9 (4.04) |
| EGDSLKYYYAN | GKNNRPR | SSIDSSGFQVF | nd / nd / nd | 0 of 9 |
| EGDSLRYYYAN | GKNNRPS | SSRLSSEFQVF | nd / nd / 4.28 | 3 of 9 (3.40) |
| EGDSLRYYYAN | GKNNRPP | SSRDSSAFQVF | 2.55 / 3.32 / 3.03 | 6 of 9 (3.85) |
| EGFSLRYYYVN | GKNNRPS | SSSDSSGFQVF | 4.03 / 4.75 / nd | 2 of 9 (3.92) |
| EGDSLRYYSAN | YKNIRPS | SSRDSSGFQVF | 3.55 / 3.50 / 4.37 | 3 of 9 (3.64) |

The 3 strongest on average among those seen in every replicate, once more:

{"CDR-L1": "EGDSLRNYYAN", "CDR-L2": "GKNNRPS", "CDR-L3": "TSRDSSGFQKF", "replicates, log10 nM": "2.13 / 1.74 / 1.79", "empty controls": "2 of 9 (4.04)"}
{"CDR-L1": "EGDSLRYYYAN", "CDR-L2": "GKNNRPG", "CDR-L3": "SSRDSYGFWVF", "replicates, log10 nM": "2.12 / 1.68 / 2.05", "empty controls": "4 of 9 (3.96)"}
{"CDR-L1": "EGDSVRYTYAN", "CDR-L2": "GKNNRPY", "CDR-L3": "SSRDSSGFQVF", "replicates, log10 nM": "2.16 / 1.85 / 1.84", "empty controls": "2 of 9 (4.37)"}

Three control strains display no target. For library AAYL52, 28% of the pairings with them gave a signal, with a median of 3.91 and one signal in twenty below 2.90, so weak values seen in few replicates may be background. The control count says in how many pairings with the empty strains this scFv gave a signal, with their mean in brackets. In this assay the parent's reference entry averaged 2.31; its copy inside this library read 2.25.